By IC50 is commonly meant the point on the concentration scale where inhibition reaches its midpoint.

For 1 compound, IC50 results are on record in patent US10231967B2, “Compounds and their use as BACE inhibitors” (ASTRAZENECA AB, priority 2010, dated 2019).

The test system of this assay is sAPPβ release in SH-SY5Y cells. Kind of assay: sAPPβ release assay. Format: cell-based. The settings on record: Homo sapiens, 17 h, compounds incubated 17 h, MSD detection. As for the experimental part:
Thaw cells and seed at a conc. of around 10000 cells/well in DMEM/F-12 with Glutamax, 10% FCS and 1% non-essential amino acids to a 384-well tissue culture treated plate, 100 μL cell susp/well. […] The cell medium was removed, followed by addition of 30 μL compound diluted in DMEM/F-12 with Glutamax, 10% FCS, 1% non-essential amino acids and 1% PeSt to a final conc. of 1% DMSO. The compounds were incubated with the cells for 17 h (overnight) at 37° C., 5% CO2. Meso Scale Discovery (MSD) plates were used for the detection of sAPPβ release. MSD sAPPβ plates were blocked in 1% BSA in Tris wash buffer (40 μL/well) for 1 h on shake at r.t. and washed 1 time in Tris wash buffer (40 μL/well). 20 μL of medium was transferred to the pre-blocked and washed MSD sAPPβ microplates, and the cell plates were further used in an ATP assay to measure cytotoxicity. The MSD plates were incubated with shaking at r.t. for 2 h and the media discarded. 10 μL detection antibody was added (1 nM) per well followed by incubation with shaking at r.t. for 2 h and then discarded. 40 μL Read Buffer was added per well and the plates were read in a SECTOR Imager.

On to `CC#Cc1cncc(-c2ccc3c(c2)[C@@]2(N=C(C)C(N)=N2)[C@]2(CC[C@H](OC)CC2)C3)c1` (single isomer, unassigned) [Example 20a Isomer 1], for which 0.1 nM corresponded to half-maximal inhibition (IC50).
